The list shows a part of the results, in another mix than the full data. Active and inactive are the calls of the source. Rule for the calls: active = hit-call score of the fitted dose curve at least 0.9, where 1 is the maximum; inactive = score below 0.9.
How the values were obtained:
Settings in all cases: actives raise or lower the signal; mRNA level, 48 h
[1] = read-out: Lipoprotein lipase (LPL), LPL (gene 4023); experiment: LTEA_HepaRG_LPL: Life Technologies and Expression Analysis (LTEA) Assay for Lipoprotein lipase (LPL) using HepaRG (AID 2283515)
Description: LTEA_HepaRG is a cell based, multiplexed-readout assay that uses HepaRG, a human liver cell line, with measurements taken at 48 hours after chemical dosing on a 96-well plate.LTEA_HepaRG_LPL is one of 102 assay component(s) measured in the LTEA HepaRG cell culture assay. It is a marker of Steatosis.Data from the assay component LTEA_HepaRG_LPL was analyzed into 1 endpoint. This assay endpoint, LTEA_HepaRG_LPL, was analyzed with bidirectional fitting relative to DMSO as the negative control and baseline of activity. Using a type of inducible reporter, measures of mRNA induction for gain or loss-of-signal activity can be used to understand regulation of transcription factor activity. To generalize the intended target to other relatable targets, this assay endpoint is annotated to the esterase intended target family, where the subfamily is lipase.
A total of 1060 chemcials from the ToxCast library were tested in eight-point concentration-response experiments. Cell culture and cytotoxicity assays were conducted at Thermo Fisher Scientific's Custom Services facility (Madison, WI). […] Fluidigm's 96.96 Dynamic ArrayTM (Fluidigm, Amsterdam, the Netherlands) technology was used for gene expression analyses by quantitative reverse transcription polymerase chain reaction (qRT-PCR, performed by Quintiles/Expression Analysis, Durham, NC)89. […]

Amino acid sequences for entries named in this document (tags omitted).
UniProt P19838, whole entry: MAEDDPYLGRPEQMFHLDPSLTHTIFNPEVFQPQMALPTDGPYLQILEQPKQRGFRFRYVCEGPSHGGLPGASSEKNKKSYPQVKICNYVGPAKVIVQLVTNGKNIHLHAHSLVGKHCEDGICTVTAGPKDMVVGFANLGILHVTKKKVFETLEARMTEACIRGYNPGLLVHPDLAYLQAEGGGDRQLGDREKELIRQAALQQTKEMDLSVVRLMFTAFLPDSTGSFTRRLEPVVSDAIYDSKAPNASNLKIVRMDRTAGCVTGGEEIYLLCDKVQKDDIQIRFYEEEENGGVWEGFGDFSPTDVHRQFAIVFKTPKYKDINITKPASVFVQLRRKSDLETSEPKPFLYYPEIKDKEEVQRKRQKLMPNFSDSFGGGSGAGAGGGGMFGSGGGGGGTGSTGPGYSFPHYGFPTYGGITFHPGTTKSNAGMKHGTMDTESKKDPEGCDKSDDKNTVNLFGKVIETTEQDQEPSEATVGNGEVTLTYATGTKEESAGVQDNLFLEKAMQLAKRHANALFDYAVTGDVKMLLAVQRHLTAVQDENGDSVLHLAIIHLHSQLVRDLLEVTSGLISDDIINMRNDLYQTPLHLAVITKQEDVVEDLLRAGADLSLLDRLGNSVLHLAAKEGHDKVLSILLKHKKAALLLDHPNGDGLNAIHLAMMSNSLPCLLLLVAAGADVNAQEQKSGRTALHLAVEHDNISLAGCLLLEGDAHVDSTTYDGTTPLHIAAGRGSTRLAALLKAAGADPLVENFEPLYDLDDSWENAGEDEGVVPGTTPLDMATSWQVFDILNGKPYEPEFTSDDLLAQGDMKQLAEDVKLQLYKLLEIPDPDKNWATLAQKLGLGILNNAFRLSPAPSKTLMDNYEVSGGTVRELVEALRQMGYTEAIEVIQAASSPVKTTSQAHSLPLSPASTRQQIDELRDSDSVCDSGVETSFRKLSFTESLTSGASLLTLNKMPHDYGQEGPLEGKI

[2] = read-out: MicroRNA 122 (MIR122), gene 406906; experiment: LTEA_HepaRG_MIR122: Life Technologies and Expression Analysis (LTEA) Assay for MicroRNA 122 (MIR122) using HepaRG (AID 2283516); note: the transcript read is the microRNA miR-122
Method in brief: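 qRT-PCR read-out (TaqMan, Fluidigm array), normalized to three housekeeping genes; HepaRG cells dosed 48 h at 8 concentrations up to 100 uM in 0.5% DMSO, duplicate; gain or loss fitted against DMSO baseline.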

[3] = read-out: matrix metalloproteinase-10 (MMP10), MMP10 (gene 4319); experiment: LTEA_HepaRG_MMP10: Life Technologies and Expression Analysis (LTEA) Assay for matrix metalloproteinase-10 (MMP10) using HepaRG (AID 2283517)
Method in brief: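 In differentiated HepaRG cultures kept in 0.5% DMSO, test chemicals act for 48 h over an eight-point range with a top dose of 100 uM. Expression is then quantified by TaqMan RT-PCR against ACTB, GAPDH and POLR2A.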

[4] = read-out: MYC, MYC (gene 4609); experiment: LTEA_HepaRG_MYC: Life Technologies and Expression Analysis (LTEA) Assay for MYC using HepaRG (AID 2283518)
Method in brief: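 MYC transcript changes, up or down relative to 0.5% DMSO, from TaqMan qRT-PCR normalized to three housekeeping genes. Human HepaRG cultures received chemicals for 48 h at eight half-log concentrations up to 100 uM, in duplicate.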

[5] = read-out: matrix metalloproteinase-3 (MMP3), MMP3 (gene 4314); experiment: LTEA_HepaRG_MMP3: Life Technologies and Expression Analysis (LTEA) Assay for matrix metalloproteinase-3 (MMP3) using HepaRG (AID 2283519)
Method in brief: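 Human liver HepaRG cultures received chemicals (top concentration 100 uM, 0.5% DMSO) for 48 h in duplicate. MMP3 mRNA induction or loss was then assessed via TaqMan qRT-PCR with housekeeping-gene normalisation.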

[6] = read-out: Paternally Expressed 10 (PEG10), PEG10 (gene 23089); experiment: LTEA_HepaRG_PEG10: Life Technologies and Expression Analysis (LTEA) Assay for Paternally Expressed 10 (PEG10) using HepaRG (AID 2283520)
Method in brief: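 qRT-PCR read-out: PEG10 mRNA normalised to three housekeeping genes, fitted bidirectionally against 0.5% DMSO vehicle. HepaRG cells received test chemicals for 48 h in serum-free induction medium, 8 points, top 100 uM, half-log steps.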

[7] = read-out: Nuclear factor NF-kappa-B p105 subunit (Homo sapiens) (UniProt P19838); experiment: LTEA_HepaRG_NFKB1: Life Technologies and Expression Analysis (LTEA) Assay for Nuclear Factor Kappa B Subunit 1 (NFKB1) using HepaRG (AID 2283521);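 note: differentiated human HepaRG liver cells in serum-free induction medium; TaqMan qRT-PCR transcript normalised to ACTB GAPDH and POLR2A housekeeping genes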
Method in brief: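 HepaRG, 48 h exposure; 8-pt half-log series from 100 uM in 0.5% DMSO; duplicates. Readout: NFKB1 mRNA by qRT-PCR (Fluidigm arrays), housekeeping-normalized. Gain/loss fit vs DMSO baseline.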

[8] = read-out: Protein phosphatase 2A (PPP2R4), PTPA (gene 5524); experiment: LTEA_HepaRG_PPP2R4: Life Technologies and Expression Analysis (LTEA) Assay for Protein phosphatase 2A (PPP2R4) using HepaRG (AID 2283522)
Method in brief: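 HepaRG, 48 h exposure, 8-pt half-log series from 100 uM, 0.5% DMSO vehicle, duplicates. Readout: PPP2R4 mRNA, Fluidigm qRT-PCR, housekeeping-normalized. Bidirectional curve fit vs DMSO baseline.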

[9] = read-out: Phosphatase and tensin (PTEN), PTEN (gene 5728); experiment: LTEA_HepaRG_PTEN: Life Technologies and Expression Analysis (LTEA) Assay for Phosphatase and tensin (PTEN) using HepaRG (AID 2283523)
Method in brief: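 Expression of PTEN is quantified in the human liver line HepaRG following two days of dosing (top concentration 100 uM, half-log dilutions, 0.5% DMSO). Values derive from bidirectional curve fitting relative to DMSO controls.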

[10] = read-out: solute carrier (SLC22A1), SLC22A1 (gene 6580); experiment: LTEA_HepaRG_SLC22A1: Life Technologies and Expression Analysis (LTEA) Assay for solute carrier (SLC22A1) using HepaRG (AID 2283524)
Method in brief: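 Transcript induction or suppression of SLC22A1 in human HepaRG cultures is scored after 48 h chemical treatment, with DMSO (0.5%) as baseline for bidirectional fitting. Concentrations span eight half-log points topping at 100 uM.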

Measured: outcome

O=[N+]([O-])c1ccccc1[N+](=O)[O-]
inactive: [1] | [2] | [3] | [4] | [5] | [6] | [7] | [8] | [9] | [10]
